# scFv variants of Ab-14 (light chain) against a SARS-CoV-2 spike peptide

The measurements come from Li et al. 2023 (doi:10.1038/s41467-023-39022-2) through the FLAb antibody collection.

Antigen: PDVDLGDISGINAS, a 14-residue peptide of the SARS-CoV-2 spike HR2 region.

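The variants were designed computationally from a first round of random CDR variants and then made and measured. Group labels follow the data file (Ctrl: baseline library sampled from a position-specific scoring matrix, with some repeated check sequences; GP: Gaussian process model; HC: hill climbing; Gen: genetic algorithm; Gibbs: Gibbs sampling; a sequence that several methods proposed may carry one label only). The scFvs were displayed on barcoded MATa yeast, the peptide on MATalpha yeast. Mating (16 h, 30 °C) was followed by selection of diploids and sequencing of their barcodes. Each replicate has its own calibration line, from reference interactions of the BCL2 family. There are six technical replicates.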

Each scFv is VH, the linker GGGGSGGGGSGGGGS, VL, as in the parent Ab-14, and differs from it in the CDRs of the light chain only.
VH: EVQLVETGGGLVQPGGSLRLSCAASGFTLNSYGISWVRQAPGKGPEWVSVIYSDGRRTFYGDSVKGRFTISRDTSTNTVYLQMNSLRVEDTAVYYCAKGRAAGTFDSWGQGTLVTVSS
VL: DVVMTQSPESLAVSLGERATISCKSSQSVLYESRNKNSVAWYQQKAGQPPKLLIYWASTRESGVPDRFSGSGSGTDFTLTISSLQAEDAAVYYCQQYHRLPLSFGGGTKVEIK

Positions count from residue 1 of the parent VL; S25L puts L in place of S.
Variants here have at most six changes.
Values are apparent Kd, the geometric mean of the replicates that gave a signal; lower means stronger binding.
"nd" marks a missing value. The strain was present, yet no cells mated with the target were sequenced in any replicate, which points to weak or no binding.
Entries are sorted by rising average, undetected variants last.
Values of this round are not directly comparable with the first-round values of the same sequences.
Nonspecific signal, from three strains lacking the peptide, appeared in 4% of pairings of all light chain designs, centred on 430 nM (5% of these signals below 38 nM); values are not corrected for it.
Of ten entries with the parent sequence, four were seen in most replicates (averages 2.2 nM to 240 nM), three in one and three in none, so single entries are noisy.
The authors' rule: three or more of the six replicates give a measured affinity, fewer mean a poor binder.

The variant S25L+V29K+S38N+W56N+E61M [GP_Gen] gave 370 pM (6 of 6 replicates). With S25L+Q27P+V29M+W56N [GP_Gen] the result was 370 pM (6 of 6 replicates). With S25Q+L30D+W56D [GP_Gen] the result was 520 pM (6 of 6 replicates). The variant S25M+V29Q+Y31V+W56E [Ctrl] showed 550 pM (6 of 6 replicates). With S25L+V29W+N35M+S38A+W56N+T59Q [GP_Gen] the result was 610 pM (6 of 6 replicates). The variant S25Q+S28A+V29G+W56D+S58N [GP_HC] gave 650 pM (6 of 6 replicates). The variant S25F+W56N+E61M [GP_Gen] showed 670 pM (6 of 6 replicates).

The variant S25L+S26P+V29T+W56Q+S103T [GP_HC] gave 680 pM (6 of 6 replicates). With S25L+S26P+W56N+A57G [GP_Gen] the result was 710 pM (6 of 6 replicates). The variant S25L+S26Q+V29M+L30E+W56H [GP_HC] showed 720 pM (6 of 6 replicates). The variant S25M+S26Q+Q27A+V29N+L30G+W56Q [GP_Gibbs] gave 740 pM (6 of 6 replicates). The variant S25L+K36P+W56N+T59Q+E61L [GP_Gen] showed 760 pM (6 of 6 replicates). For V29F+W56G+Q96S [GP_HC], the assay gave 940 pM (6 of 6 replicates). The variant S25L+L30P+S33D+W56N [GP_Gen] showed 950 pM (6 of 6 replicates).

The variant S25F+S28G+W56G [GP_HC] showed 1.0 nM (6 of 6 replicates). For S25L+S26Q+V29F+N37M+W56N+S62E [GP_Gibbs], the assay gave 1.1 nM (6 of 6 replicates). The variant S26F+Q27F+V29K+L30P+Y31G+W56E [GP_Gibbs] showed 1.1 nM (6 of 6 replicates). With S25L+S26P+V29E+W56N+T59Q+E61L [GP_Gen] the result was 1.4 nM (6 of 6 replicates). The variant S25V+V29W+W56N+T59Q+Q96D [GP_Gen] gave 1.4 nM (6 of 6 replicates). The variant S25L+S26L+V29T+W56D [GP_HC] gave 1.7 nM (6 of 6 replicates). The variant S25L+S26R+V29T+W56N+E61L [GP_HC] showed 2.8 nM (6 of 6 replicates).

For Y31M+K36A+W56D [GP_HC], the assay gave 4.0 nM (6 of 6 replicates). The variant S26G+W56G+S103H [GP_HC] showed 4.0 nM (6 of 6 replicates). The variant S25V+S26Q+V29W+W56N+S62D [GP_Gen] gave 5.0 nM (6 of 6 replicates). The variant S25V+S26M+V29H+W56N+T59Q [GP_Gen] showed 5.2 nM (6 of 6 replicates). The variant Q27T+S28G+W56G [GP_HC] gave 5.4 nM (6 of 6 replicates). The variant S25L+V29M+S33Q+W56N+T59L+Q96C [GP_Gibbs] gave 5.8 nM (6 of 6 replicates). With S25L+V29F+K36S+W56N [GP_Gen] the result was 34 nM (5 of 6 replicates).

The variant S25V+S26P+V29T [GP_HC] showed 44 nM (5 of 6 replicates). The variant R34H+L102N [Ctrl] showed 48 nM (5 of 6 replicates). For Q27S+H98N [Ctrl], the assay gave 50 nM (6 of 6 replicates). With L30Y+Y31S [Ctrl] the result was 150 nM (5 of 6 replicates). For Y31A+S33K+N35C+R99N [Ctrl], the assay gave 210 nM (5 of 6 replicates). The variant S26D+R34N+S38A [Ctrl] gave 230 nM (6 of 6 replicates). The variant S25C+S26P+K36N+W56A+E61R+L102P [Ctrl] gave 660 nM (1 of 6 replicates).

The variant V29T+E32D+N35E+L102D [Ctrl] gave nd (0 of 6 replicates). The variant E32N+Q96L [Ctrl] showed nd (0 of 6 replicates). For Q27L+V29Q+Y31G+Y97P+R99Y [Ctrl], the assay gave nd (0 of 6 replicates). With Q27E+V29G+R34Q+Q95S+L102P [Ctrl] the result was nd (0 of 6 replicates).

The first 2 variants above that were never detected:

{"changes": "V29T+E32D+N35E+L102D", "group": "Ctrl", "apparent Kd": "nd", "seen in": "0 of 6"}
{"changes": "E32N+Q96L", "group": "Ctrl", "apparent Kd": "nd", "seen in": "0 of 6"}